The entries are a selection whose mix differs from that of the whole data set. Some tests of the compounds listed are not included; inactive here does not mean inactive elsewhere. Calls of active or inactive are those of the source.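 Rule for the calls: active = activation above its plate's cutoff, the mean activation of sample wells plus 3 SD; inactive = the rest.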

Amino acid sequences for entries named in this document (tags omitted).
UniProt P08173, whole entry: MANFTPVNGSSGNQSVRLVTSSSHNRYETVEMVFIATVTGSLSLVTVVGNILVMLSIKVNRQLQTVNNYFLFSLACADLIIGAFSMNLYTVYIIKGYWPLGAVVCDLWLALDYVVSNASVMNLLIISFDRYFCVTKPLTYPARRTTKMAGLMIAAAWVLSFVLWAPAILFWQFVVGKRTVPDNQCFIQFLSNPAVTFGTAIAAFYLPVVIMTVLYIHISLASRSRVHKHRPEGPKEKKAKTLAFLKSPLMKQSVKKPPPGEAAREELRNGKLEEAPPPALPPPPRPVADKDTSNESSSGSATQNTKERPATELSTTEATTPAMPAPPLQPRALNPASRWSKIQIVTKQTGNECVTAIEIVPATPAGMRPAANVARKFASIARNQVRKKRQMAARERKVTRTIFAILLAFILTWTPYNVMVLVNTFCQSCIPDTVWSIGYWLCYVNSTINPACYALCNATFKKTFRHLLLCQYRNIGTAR

In this test the target is Muscarinic acetylcholine receptor M4 (Homo sapiens) (UniProt P08173). Nature of the test: human M4 muscarinic receptor positive allosteric modulators, primary screen, CHO-K1 cells, Fluo-8 calcium fluorescence (AID 624126). Conditions: CHO-K1 hM4/Gqi5, Fluo-8 calcium fluorescence, ACh EC20; at 3 µM; active compounds read high; 0% = ACh EC20, 100% = maximal ACh.
`COc1ccc(Br)c(C(=O)NCC2(N3CCCCC3)CCCCC2)c1`: the activation was inactive: -0.56%. Turning to `C=C(C)C#CC(O)(C(=O)OC1CCN(C)CC1)c1ccccc1` (stereo not drawn), the activation is inactive: -11.5%. On to `CN(C)c1cccc(C(=O)NCC2(N(C)C)CCCCC2)c1`, for which the activation was inactive: 6.24%. As for `O=C(OCCN1CCCC1)C(O)(c1ccccc1)c1ccccc1`, the activation was inactive: -10.3%. Regarding `CC(C)Oc1ccc(C(=O)NCC2(N(C)C)CCCCC2)cc1`, the activation was inactive: 0.13%. `O=C(OC1CN2CCC1CC2)C(CO)(c1ccccc1)c1ccccc1` (stereo not drawn): the activation is inactive: -19.9%. The figure for `COc1ccc(Cl)cc1C(=O)NCC1(N(C)C)CCCCC1` is inactive: -2.44%; for `COc1cccc(C(=O)NCC2(N3CCCCC3)CCCCC2)c1` it is inactive: 3.69%; for `O=C(NCC1(N2CCCCC2)CCCCC1)c1cccc(Cl)c1` it is inactive: 1.63%.

With `CN(C)C1(CNC(=O)c2ccc(Br)cc2)CCCCC1`, the activation is inactive: 4.44%. The figure for `COc1cc(C(=O)NCC2(N(C)C)CCCCC2)c([N+](=O)[O-])cc1OC` is inactive: 8.89%; for `O=C(NCC1(N2CCCCC2)CCCCC1)c1cc(F)c(F)cc1Cl` it is inactive: 1.57%; for `C=CCN1CCN(CCOC(=O)C(O)(c2ccccc2)c2ccccc2)CC1` it is inactive: -22.3%. The same measure for `O=C(NCC1(N2CCCCC2)CCCCC1)c1cccc(Br)c1`: inactive: -3.45%; for `Cc1cc(C(=O)NCC2(N3CCCCC3)CCCCC2)ccc1[N+](=O)[O-]`: inactive: -4.1%.

`COc1ccc(C(=O)NCC2(N(C)C)CCCCC2)cc1`: the activation is inactive: 2.31%. The same measure for `CN(C)c1ccc(C(=O)NCC2(N(C)C)CCCCC2)cc1`: inactive: 10.8%. With `Cc1ccccc1C(=O)NCC1(N2CCCCC2)CCCCC1`, the activation was inactive: -3.25%. The same measure for `CC(C)N1C(=O)CC2(CCN(CCOC(=O)C(O)(c3ccccc3)c3ccccc3)CC2)C1=O`: inactive: 3.14%; for `COc1cc(SC)ccc1C(=O)NCC1(N(C)C)CCCCC1`: inactive: -0.06%; for `CCN(CC)CC(C)C(C)OC(=O)C(O)(c1ccccc1)c1ccccc1` (stereo not drawn): inactive: -40.7%.

As to `Cc1ccc(C(=O)NCC2(N3CCCCC3)CCCCC2)cc1`, the activation is inactive: -0.7%. The figure for `O=C(NCC1(N2CCCCC2)CCCCC1)c1cc([N+](=O)[O-])ccc1Cl` is inactive: -3.61%.

The values are drawn from PubChem BioAssay AID624126 (The Scripps Research Institute Molecular Screening Center, 2012).
